Measurements published in patent US9618524B2, “Method, composition, isolation and identification of a plaque particle and related biomarker” (Plaxgen Inc., priority 2012, dated 2017).

What was measured:
Assay in all cases: Mass spectroscopy proteomics, semi-quantitative binding affinity of serum proteins (plaqueproteome, Table 2)
Conditions in all cases: higher number = stronger affinity
[1] = molecular target: T1, Abeta-42 plaque particles (Homo sapiens, UniProt P05067)
T1 construct: Abeta 1-42
Procedure: Next to isolate serum derived Abeta-42 plaque particles, the plasma or serum samples obtained from AD subjects were first centrifuged at 5,000 rpm for 5 min and the supernatants were transferred to new centrifuge tubes. Next, the supernatants were diluted in PBS to make 50% of the serum and plasma samples and used for incubation with Abeta-42 plaque oligomers/aggregates. Each assay was performed in 1 mL reaction (800 μL of 50% plasma or serum) and 200 μL (30 μg) of the Abeta-42 aggregates and the mixtures were incubated at 37° C. for 1 hr. To the mixture Thioflavin S dye (120 μg) was added and the sample was incubated for additional 30 min at 37° C. After the incubation, the mixture was directly used for sample acquisition using flow cytometer (FACS ARIA II, BD Biosciences, San Jose, Calif.). After initial detection of Abeta-42 plaque particles in the acquisition blot, gates were drawn in fluorescent dot blot to separately sort and isolate fluorescently labeled Abeta-42 particles.
For preparing trypsin digested peptide sequences, the isolated plaque particles were centrifuged at 10000 rpm for 5 min and the pellet containing plaque particles was resuspended in 100 μl PBS buffer. […]
(§1) All MS/MS samples were analyzed using Sequest (Thermo Fisher Scientific, San Jose, Calif., USA; version 1.0). […]

[2] = tested on: High Density cholesterol (Chl Large) plaque particles; parameters: species or system human
Procedure: (§2) The goal was to isolate plaque particles synthesized in the bio-fluids in a relatively pure form to enable their subsequent use for identification of components that contribute to the plaque formation. In order to isolate cholesterol plaque particles, the plasma or serum samples obtained from atherosclerotic subjects were first centrifuged at 5,000 rpm for 5 min and the supernatants were transferred to new centrifuge tubes. Next, the supernatants were diluted in PBS to make 50% of the serum and used for incubation with cholesterol oligomers/aggregates. Each assay was performed in 1 mL reaction (800 μL of 50% plasma or serum) and 200 μL (30 μg) of the Cholesterol aggregates and the mixtures were incubated at 37° C. for 1 hr After the incubation, the mixture was directly used for sample acquisition using flow cytometer (FACS ARIA II, BD Biosciences, San Jose, Calif.). […] In order to isolate these fractions, three sets of gates were drawn in the acquisition blot to separately sort and isolate High density or high complex cholesterol particles, Low density or low complex cholesterol particles and both High and low density cholesterol particles together. The total number of cholesterol particles sorted and collected in separate tubes varied (5000 to 100,000) among serum samples of atherosclerosis subjects.
(§3) For preparing trypsin digested peptide sequences, the isolated plaque particles were centrifuged at 10000 rpm for 5 min and the pellet containing plaque particles was resuspended in 100 μl PBS buffer. Stock solutions of digestion buffer (Ammonium Biocarbonate 50 mM), reducing buffer (DDT 100 mM) and alkylation buffer (lodoaceamide 100 mM) were prepared and stored at −20° C. for up to two months. For trypsin digestion, 100 μl of each plaque particles (2000 of Abeta-42, cholesterol, Tau and alpha-synuclein) were precipitated using cold acetone −80° C. by adding 4X's the volume. The samples were placed on dry ice for 10 min with intermittent vortex. Next, the samples were centrifuged at 4° C. at 10000 G for 10 min. Top layer of acetone was carefully removed from the tube with care not to disturb the plaque particles pellet. The samples were speed-vac for 10 min to ensure all acetone has been boiled away. The plaque particles pellet were reconstituted with 15 μl 8M Urea 100 mM Ammonium bicarbonate stock and 20 μl protease max solution. The protease max solution (Promega, Madison, Wis.) was prepared from stock by adding 60 μl 50 mM Ammonium bicarbonate and used for 3 solution digests (20 μl each). […] The tubes were incubated at 55° C. for 30 minutes. […]
as §1

[3] = tested on: Low density cholesterol (Chl small) plaque particles; parameters: species or system human
Procedure: as §2, §3, §1

[4] = molecular target: T2, alpha-synuclein plaque particles (Homo sapiens, UniProt P37840)
T2 construct: 140 amino acids polypeptide
Procedure: To prepare oligomers/aggregates of human alpha-synuclein (140 amino acids polypeptide), 1 mg of the recombinant alpha-synuclein protein was suspended in 1 mL of PBS and the sample was incubated at 37° C. for 2 hrs. After incubation, all the samples were centrifuged for 5 min. at 5000 rpm to remove precipitate, if any, and the supernatant containing oligomers/aggregates were used in vitro plaque particles formation assay. For detecting alpha-synuclein plaque particles Thioflavin S (Ex/Em=430 nm/550 nm) amyloid binding fluorescent dye (10 μg) was used.
Similarly, to isolate alpha-synuclein plaque particles, diluted plasma or serum samples obtained from AD subjects were used for incubation with alpha-synuclein plaque oligomers/aggregates. Each assay was performed in 1 mL reaction (800 μL of 50% plasma or serum) and 200 μL (30 μg) of the alpha-synuclein aggregates and the mixtures were incubated at 37° C. for 1 hr. To the mixture Thioflavin S dye (120 μg) was added and the sample was incubated for additional 30 min at 37° C. After the incubation, the mixture was directly used for sample acquisition using flow cytometer (FACS ARIA II, BD Biosciences, San Jose, Calif.). […]
as §1

Tau plaque particles = tested on: Tau plaque particles; parameters: species or system human
Procedure: To prepare derivatives of human Tau proteins oligomers/aggregates, 1 mg of Tau-45 Peptide (45-73 Exon 2/Insert 1 domain) was suspended in 1 mL of PBS and the sample was incubated at 37° C. for 2 hrs. For Tau-74 (74-102) (Exon 3/Insert 2 domain) preparation, 1 mg of Tau-74 was suspended in 1 mL of PBS and the sample was incubated at 37° C. for 2 hrs. Similarly for preparing Tau-275 (275-305) (Repeat 2 domain) 1 mg of the peptide was suspended in 1 mL of PBS and the sample was incubated at 37° C. for 2 hrs. After incubation, all the samples were centrifuged for 5 min. at 5000 rpm to remove precipitate, if any, and the supernatant containing oligomers/aggregates were used for in vitro amyloid plaque particles formation assay. For detecting Tau plaque particles, Thioflavin S (Ex/Em=430 nm/550 nm) amyloid binding fluorescent dye (10 μg) was used in the assay.
Next, to isolate Tau plaque particles, as performed for Abeta-42 and Abeta-28 plaque particles isolation, diluted serum samples were used for incubation separately with Tau-45, Tau-74 and Tau-275 oligomers/aggregates. Each assay was performed in 1 mL reaction (800 μL of 50% plasma or serum) and 200 μL (30 μg) of each Tau aggregates and the mixtures were incubated at 37° C. for 1 hr. […]
as §1

| Substance | Semi-quantitative analysis of proteins binding to different plaque particles: Abeta-42 [1] | Semi-quantitative analysis of proteins binding to different plaque particles: Chl Large [2] | Semi-quantitative analysis of proteins binding to different plaque particles: Chl small [3] | Semi-quantitative analysis of proteins binding to different plaque particles: Synuclein [4] | Semi-quantitative analysis of proteins binding to different plaque particles: Tau (Tau plaque particles) |
| --- | --- | --- | --- | --- | --- |
| Apolipoprotein E | 11 | – | – | – | – |
| Coagulation factor X | 0 | 0 | 1 | 0 | 0 |
| Serum albumin | – | 340 | 320 | – | 281 |
